{
  "source": "ChEMBL document CHEMBL1130720",
  "about": "“Design, synthesis, and conformational analysis of a novel series of HIV protease inhibitors” (Bioorg Med Chem Lett, 1998)",
  "target": "Human immunodeficiency virus type 1 protease (Human immunodeficiency virus 1, UniProt Q72874)",
  "test": "Binding affinity to HIV-1 protease was determined",
  "data": [
    {"smiles": "COc1ccc(S(=O)(=O)N(CC2CCCC2)C[C@@H](O)CN(CCc2ccccc2)C(=O)OCC2COCO2)cc1", "note": "(stereo partly specified)", "values": [
      {"measurement": "Ki", "value": 65, "unit": "nM"}
    ]}
  ]
}
